Assay results taken from US8802663B2, “Pyrazole oxadiazole derivatives as S1P1 agonists” (Merck Serono SA, priority 2009, dated 2014).

By UniProt entry, the sequences of proteins in these tests, tags left out.
UniProt P21453, whole entry, species assumed: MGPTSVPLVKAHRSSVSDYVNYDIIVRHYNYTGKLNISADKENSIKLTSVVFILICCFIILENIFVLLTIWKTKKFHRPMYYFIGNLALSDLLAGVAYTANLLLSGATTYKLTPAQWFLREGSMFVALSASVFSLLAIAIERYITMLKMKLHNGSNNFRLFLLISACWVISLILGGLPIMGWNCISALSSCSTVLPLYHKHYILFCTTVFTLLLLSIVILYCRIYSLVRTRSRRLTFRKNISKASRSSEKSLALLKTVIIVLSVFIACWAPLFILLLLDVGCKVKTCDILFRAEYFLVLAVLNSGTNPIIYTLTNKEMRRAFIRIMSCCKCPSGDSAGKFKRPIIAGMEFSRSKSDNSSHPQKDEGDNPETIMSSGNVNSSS

Target: S1P1 (Homo sapiens (Human), UniProt P21453)
Test: Receptor binding assay, [33P]sphingosine 1-phosphate, membranes from CHO cells expressing S1P1
Conditions: CHO cell membranes, 25 pM [33P]sphingosine 1-phosphate
Method: Receptor binding assay: Membranes were prepared from CHO cells expressing S1P1 or S1P3 for use in ligand and […] binding studies. Cells were suspended in 50 mM TRIS, pH 7.4, 2 mM EDTA, 250 mM Sucrose (buffer A) and 1× Complete protease inhibitor cocktail (Roche), and disrupted at 4° C. by N2 decompression using a cell disruption bomb (Parr Instrument). Following centrifugation at 1000 RPM for 10 min at 4° C., the supernatant was suspended in buffer A and centrifuged again at 19000 RPM for 60 min at 4° C. The pellet was then suspended in 10 mM HEPES, pH 7.4, 1 mM EDTA, 250 mM Sucrose (Buffer B), and 1× Complete EDTA-free protease inhibitor cocktail and homogenized using a potter. Membranes were flash frozen in liquid N2 and stored at −80° C. [33P]sphingosine 1-phosphate (3000 Ci/mmol; American Radiolabeled Chemicals, Inc.) was added to test compounds in DMSO. […] Binding was performed for 60 min at RT on a shaker and bound radioactivity was measured on a PerkinElmer 1450 MicroBeta counter. Specific binding was calculated by subtracting remaining radioactivity in the presence of 1000-fold excess of unlabeled SIP. Binding data were analyzed using the GraphPad Prism program.

`c1cc(-c2c(-c3nc(-c4ccc(Cn5ccnc5)cc4)no3)cnn2C2CCCCC2)ccn1` [Example 148] gave a Ki of 2.1 nM.
`c1cc(-c2c(-c3nc(-c4ccc(Cn5ccnc5)cc4)no3)cnn2C2CCCCC2)ccn1` [Example 136, 4-{2-Cyclohexyl-4-[3-(4-imidazol-1-ylmethyl-phenyl)-[1,2,4]oxadiazol-5-yl]-2H-pyrazol-3-yl}-pyridine] was tested, and the Ki was 2.06 nM.
